Measured values from patent publication US5342604A, “Complexes possessing ortho ligating functionality” (The Dow Chemical Company, priority 1992, dated 1994).

Experiment: Percent complex determination, samarium complexes (Sephadex C-25 cation exchange)
Format: physicochemical
Details: Sm
Method: A disposable 10 ml plastic (Biorad) column was filled with 1 to 2 ml of water-swelled Sephadex™ C-25 cation exchange resin. The water was pressure eluted to the top of the resin. Fifteen μl of the complex (or more if counts were low) were added to the top of the resin. This was followed by 2 ml of 4:1 (V:V) isotonic saline:conc. ammonium hydroxide solution as an eluent which was allowed to drip into a counting tube. This was also pressure eluted to the top of the resin. An additional 2 ml of the eluent were added and the column pressure eluted to remove all liquid. The dried resin was then placed in a third counting tube and the three tubes counted on a NaI well counter using a Canberra multichannel analyzer linked to a computer. The percent complex was determined by dividing the number of counts in the two elutions by the total counts in the elutions plus the column, all times 100.
Samarium complexes were formed as described previously for yttrium complexes except that 0.0003M samarium was prepared by dissolution of Sm2 03 (348.7 g mole) in 0.1M hydrochloric acid. […] Percent complex determination was made in the same manner as for the yttrium complex.

2,6-BIS{[(2-{BIS(CARBOXYMETHYL)]AMINO}ETHYL) (CARBOXYMETHYL)]AMINOMETHYL}-4-(AMINO)PHENOL, SAMARIUM COMPLEX [Example XX]
percent complex (after anion exchange chromatography): 95%
percent complex (pH 7, before purification): 68%
